In this assay the test system is human autoreactive T cells (PBMC). Description: Interferon gamma ELISPOT of PBMC from type 1 diabetes patients (Example 5). Format: cell-based. The settings on record: 1 μM peptide, PBMC 20,000 per well, recent onset type 1 diabetes patients, FIG. 8.

For “SLYNTVATL (HIV peptite epitope) [reference compound]”, the “recognition by human autoreactive T cells (interferon-gamma ELISPOT)” value was “recognise”.

The record behind these values is patent US20070129307A1, “Insulin epitopes for the treatment of type 1 diabetes” (The University of British Columbia, priority 2001, published 2007).
